An excerpt weighted towards active compounds, which were near 0.92% of everything screened.
KinaseGlo FLuc – counter-screen: inhibitors of Kinase-Glo firefly luciferase; Kinase-Glo luciferase, ATP luminescence, 8 min; actives 0.28% (n = 200,000); Potency, µM (titrated, usually from 38.3 µM), hits mostly inhibitors; AID 1379; Q27757; also: nearly all actives have a fitted effect of over 60% in size
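Compound is pinned into ATP-containing buffer (10 uM ATP, imidazole pH 7.2, 7 mM MgCl2). Kinase-Glo luciferase reagent is then added. Light output is recorded following an 8-min room-temperature incubation.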
RXFP1 antag – antagonists of human relaxin receptor RXFP1; Q9HBX9; HEK293-RXFP1, relaxin-stimulated cAMP HTRF, 30 min; stronger effect = lower value; activity change, negative = inhibition, % at 57.5 µM; actives 0.59% (n = 350,000); AID 1259400;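 active = activity change of -60% or lower, but not beyond a set lower limit; inconclusive = change between -60% and -40%, or beyond the set limit; inactive = change above -40%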
GALK inhibitor – blocks human galactokinase activity; AID 1868; actives 0.007% (n = 270,000); P51570; Purified GALK, Kinase-Glo residual ATP luminescence; Potency, µM (doses to about 57.5 µM), usual class: inhibitors
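ATP-depletion format; final 35 uM ATP, 100 uM D-galactose, 5 nM enzyme; pH 8.0 HEPES/Mg2+ buffer; 60 min RT; luminescence read 10 min after detection reagent.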
RXFP1 ag – agonists of human relaxin receptor RXFP1 | actives 0.3% (n = 370,000) | HEK293T-RXFP1 cAMP TR-FRET, 30 min; response scale: percent of porcine relaxin response, buffer zero | Potency, µM (titrated, usually from 57.5 µM), most hits filed as activators | Q9HBX9; also: nearly all actives have a fitted effect of over 60% in size
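HEK293 cells stably expressing RXFP1, treated 30 min at 37C with compounds plus PDE4 inhibitor Ro 20174; cAMP measured by HTRF TR-FRET. Normalized to buffer and 29 nM porcine relaxin; EC50 by Hill fit.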
PKM2 activator – activators of human pyruvate kinase M2; P14618; purified PKM2, Kinase-Glo ATP luminescence, activation; response scale: 0% is enzyme alone, no compound; Potency, µM (highest dose often 57.5 µM), usual class: activators; actives 0.34% (n = 260,000); AID 1631; also: nearly all actives have a fitted effect of over 55% in size
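hPK-M2, >95% pure; 0.1 mM ADP / 0.5 mM PEP final; imidazole pH7.2 buffer w/ 7 mM MgCl2, 50 mM KCl; 1 h RT; Kinase-Glo lum. Intermediate enzyme activity for dual inhibitor/activator qHTS.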
miR-21 reporter – raises the signal of a miR-21 reporter | HeLa miR-21 FLuc reporter, luciferase, 48 h | Potency, µM (highest dose often 38.3 µM) | 340,000 tested, under 10 active | AID 2288; active = well fitted rising curve with a large enough effect; inconclusive = small, poorly fitted or top-dose-only effect; inactive = no such curve, though single readings can be large or run the other way;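 note: miR-21 action dims this reporter so a rising signal means less miR-21 action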
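HeLa cells stably expressing CMV-driven firefly luciferase with a downstream miR-21 binding sequence, endogenously expressing miR-21, were treated with titrations (up to about 40uM final) for 48 hours at 37 degree Celsius. Luciferase luminescence was read after lysis.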
Hits are given with their value; i = inactive; ? = inconclusive; nt = no result; [ ] = another dose, or the depositor's remark. Unless noted, calls follow the shape of the dose curve; as a rule, active = well fitted curve in the direction sought with a large enough effect; inconclusive = small, poorly fitted or top-dose-only effect, or another doubt; inactive = no such curve, though single readings can be large; an effect the other way counts as inactive or inconclusive.

SMILES | KinaseGlo FLuc | RXFP1 antag | GALK inhibitor | RXFP1 ag | PKM2 activator | miR-21 reporter
O=C(OCC(=O)N1CCN(C(=O)c2ccco2)CC1)c1cc(-c2ccc(Cl)c(Cl)c2Cl)nc2ccccc12 | i | i | i | i | ? | i
O=C(OCC(=O)N1CCN(C(=O)c2ccco2)CC1)c1cc(-c2ccco2)nc2ccccc12 | i | i | i | i | 16µM | i
COC(=O)N1C2=C(c3ccccc3[C@@H]1CC(=O)Nc1ccc3cc4ccccc4cc3c1)[C@@H]1C(=O)N(c3ccccc3)C(=O)[C@@H]1[C@H](C)C2 | i[7.66 µM] | nt | nt | nt | i[11.5 µM] | nt
O=C(CCc1nnc2ccc(N3CCC4(CC3)OCCO4)nn12)NCc1ccc(F)cc1 | nt | i | i | 16µM | i[0.46 µM] | i
CCc1ccc(NC(=O)CCc2nnc3ccc(N4CCC5(CC4)OCCO5)nn23)cc1 | nt | i | i | i | i | i
CCCCc1nc2c(c3c1C[C@H](C)OC3)CN(C(=O)NCc1ccco1)CC2 | i[7.66 µM] | nt | nt | nt | i[11.5 µM] | nt
CCOc1ccc(-n2c([S-])c(C(=O)Nc3ccc(S(=O)(=O)N4CCOCC4)cc3)[n+]3cc(C(N)=O)ccc23)cc1 | nt | i | i | 32µM | i | i
CCOc1ccc(NC(=O)COC(=O)c2ccc(S(=O)(=O)N3CCOCC3)cc2)cc1 | nt | i | nt | nt | nt | nt
COCCn1c(=S)[nH]c2sc3c(c2c1=O)CCC(C)C3 (stereo not drawn) | nt | i | i | ? | i | i
COCCCn1c(=S)[nH]c2sc3c(c2c1=O)CCCS3 | i | i | i | 16µM | i | i
Cc1cc(C)c2c(=O)n(CC(=O)Nc3cccc(Cl)c3C)sc2n1 | nt | i | i | i | 3.2µM | i
Cc1cc(C)c2c(=O)n(CC(=O)Nc3ccc(Br)c(C)c3)sc2n1 | nt | i | i | i | ? | i
CC(=NCC(=O)O)c1ccccc1 | i[7.66 µM] | nt | nt | nt | nt | nt
Cc1ccc(S(=O)(=O)/N=c2\ccc(Cl)cn2C(F)F)cc1 | nt | i | i | i | 25µM | i
COc1c2c(nc3occc13)C(CC=C(C)C)(OC)C(=O)C=C2 (stereo not drawn) | i | -62 | i | i | i | i
C=CCOc1ccc2c(OC)c3ccoc3nc2c1OC | i | i | i | i | i | i
Cc1ccc(C(=O)c2cc(O)c(O)c([N+](=O)[O-])c2)cc1 | nt | i | nt | nt | nt | nt
CCCCCCCCCCCCC/C=C/[C@@H](O)[C@H](COP(=O)([O-])OCC[N+](C)(C)C)NC(=O)CCCCCCCCCCCCCCCCC | i | nt | nt | nt | nt | nt
CCOC(=O)/C=c1/s/c(=C/c2ccc3cc(OC)ccc3c2)c(=O)n1CC(=O)NCc1ccc2c(c1)OCO2 | nt | -79 | nt | nt | nt | nt
COc1ccccc1/C=N/Nc1nncc2ccccc12 | i | i | i | i | i | i
COc1ccc(/C=N/Nc2nonc2N)c(OC)c1 | i | i | i | i | i | i
COc1cccc(/C=N/Nc2nccnc2Cl)c1O | 11µM | -70 | i | i | i | i
COc1ccc(/C=N/Nc2nccnc2Cl)c(OC)c1 | 13µM | i | i | i | i | i
COc1ccc(/C=N/Nc2nccnc2Cl)cc1 | 7.1µM | i | i | i | i | i
COc1ccc(/C=N/Nc2nncc3ccccc23)cc1 | 11µM | i | i | i | i | i
SMILES | KinaseGlo FLuc | RXFP1 antag | GALK inhibitor | RXFP1 ag | PKM2 activator | miR-21 reporter
Clc1nccnc1N/N=C/c1ccc(Br)cc1 | nt | i | i | i | i | i
O=C(O)c1ccc(F)c(S(=O)(=O)Nc2cccc(F)c2)c1 | i | nt | nt | nt | nt | nt
C/C=C(/CC[C@@H](C)[C@H]1CCC2C3=CC[C@H]4[C@H](C)[C@@H](O)CC[C@]4(C)C3CC[C@@]21C)C(C)C (stereo partly drawn) | i | nt | nt | nt | nt | nt
COC(=O)c1sccc1N/N=C/c1ccc(OC)c(OC)c1OC | i | i | i | i | i | i
COC(=O)c1sccc1N/N=C/c1cccc(OC)c1O | 10µM | i | i | i | i | i
Oc1ccc(/C=N/Nc2nccnc2Cl)c(O)c1 | 3.5µM | i | i | i | i | i
C=C[C@H]1CCC=C2C(=O)CCC[C@@H]21 | i | nt | nt | nt | nt | nt
O=C(Nc1ccc(OC(F)(F)F)cc1)Nc1cccc([N+](=O)[O-])c1 | nt | -74 | i | i | i | i
Cc1ccc(NC(=O)Nc2cccc([N+](=O)[O-])c2)cc1F | nt | i | i | i | i | i
Cc1csc(NC(=O)c2nn(C)c(C)c2[N+](=O)[O-])n1 | i | i | nt | i | i | i
COCC(C)N1C(=O)Cc2c1nc(N)c1c(N)nc(N3CCN(c4ccccc4F)CC3)c(C#N)c21 (stereo not drawn) | i | -60 | i | i | i | i
COCCN1C(=O)Cc2c1nc(N)c1c(N)nc(N3CCN(c4ccc(F)cc4)CC3)c(C#N)c21 | i | i | i | i | i | i
COc1ccc(-c2nc3oc4cc(OC)ccc4c(=O)c3c(=O)n2Cc2ccco2)cc1 | i | i | i | i | ? | i
CCc1nc2oc3cc(OC)ccc3c(=O)c2c(=O)n1Cc1ccco1 | i | i | i | i | 25µM | i
O=C(c1ccc(Cc2nc3ccccc3[nH]2)cc1)N1CCOCC1 | i | nt | nt | nt | nt | nt
CCCN1C=CC(=C2C(=O)c3ccccc3C2=O)C=C1 | 4.5µM | i | i | i | i | ?
CCCCCCN1C=CC(=C2C(=O)c3ccccc3C2=O)C=C1 | 8.9µM | i | i | i | i | i
CCN1C=CC(=C2C(=O)c3ccccc3C2=O)C=C1 | 5µM | i | i | i | i | ?
CN1C=CC(=C2C(=O)c3ccccc3C2=O)C=C1 | ? | nt | i | i | i | i
CCCCN1C(C)=CC(=C2C(=O)c3ccccc3C2=O)C=C1C | ? | i | i | i | i | i
N[C@@H](CSCc1ccccc1)C(=O)O | i[7.66 µM] | nt | nt | nt | nt | nt
NS(=O)(=O)c1ccc(CCNC(=O)C2CCC(Cn3c(=S)[nH]c4ccccc4c3=O)CC2)cc1 (stereo not drawn) | i | -69 | i | i | i | i
NS(=O)(=O)c1ccc(CCNC(=O)C2CCCCC2)cc1 | i | i | i | i | i | i
COc1ccc(C(CNC(=O)c2cccc(S(=O)(=O)N3CCCCC3)c2)N2CCCC2)cc1 (stereo not drawn) | nt | i | nt | i | nt | nt
C=CCNC(=O)N1CCc2nc(COc3ccccc3)c3c(c2C1)CO[C@@H](C)C3 | i[7.66 µM] | nt | nt | nt | i[11.5 µM] | nt
CS(=O)(=O)c1ccc(-c2cn3ccccc3n2)cc1 | nt | i | nt | nt | nt | nt
CCCCOc1ccc(-c2c(C(=O)Nc3ccccc3)c(C)[nH]c(=S)c2C#N)cc1 | i | i | i | 22µM | i | i
CCOC(=O)c1c(C)[nH]c(=S)c(C#N)c1-c1ccc(OC)cc1 | i | i | i | i | i | i
C[C@H](C(=O)c1ccccc1)C(c1ccccc1)N1CCOCC1 (stereo partly drawn) | i[7.66 µM] | nt | nt | nt | nt | nt

Assay outcomes as filed in PubChem.
